## Apparent affinities of Ab-91 variants for a coronavirus HR2 peptide

Source: Engelhart et al. 2022 (doi:10.1038/s41597-022-01779-4), MIT Lincoln Laboratory and A-Alpha Bio; data file from the FLAb repository.

Target: peptide PDVDLGDISGINAS, taken from heptad repeat 2 (HR2) of SARS-CoV-2 spike.

The variants keep the light chain, the linker and the frameworks of Ab-91 (scFv order VL, the linker GGGGSGGGGSGGGGS, VH).
VL: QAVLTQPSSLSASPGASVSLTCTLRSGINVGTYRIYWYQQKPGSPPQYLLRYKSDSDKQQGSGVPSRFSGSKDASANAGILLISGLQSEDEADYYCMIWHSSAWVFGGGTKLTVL
VH: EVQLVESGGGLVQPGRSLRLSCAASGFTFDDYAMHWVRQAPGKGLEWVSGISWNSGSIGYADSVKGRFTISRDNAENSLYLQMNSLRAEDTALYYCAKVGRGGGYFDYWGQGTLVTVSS

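The starting antibody came from a phage panning campaign against this peptide. Library AAYL51 holds single substitutions and randomly drawn double and triple substitutions in the CDRs. AlphaSeq pools MATa yeast showing the antibodies with MATalpha yeast showing the peptide. After mating in shaken culture at 30 °C for 16 h, diploids were selected and their barcode pairs sequenced. Scores were corrected for input abundance and mapped to Kd with protein pairs of known affinity run in the same pool. The assay was run in three technical replicates.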

Variants are written as CDR1, CDR2 and CDR3 of the heavy chain (limits as in the source). Parent: GFTFDDYAMH, GISWNSGSIGYADSVK, VGRGGGYFDY. Each Kd is an estimate from the mating assay, the geometric mean of the replicates in which the pair was seen; lower is stronger. "nd" marks a missing value. The strain was present, yet no cells mated with the target were sequenced in any replicate, which points to weak or no binding. Entries are sorted by rising average, undetected variants last. Background: pairings of library AAYL51 with three empty control strains gave a value in 21% of cases (median 34 µM, 5th percentile 1.8 µM). Values in that range, when seen in few replicates, are hard to tell from nonspecific mating.

| apparent Kd | seen in | CDR-H1 | CDR-H2 | CDR-H3 |
|---|---|---|---|---|
| 27 nM | 3/3 | GFQFDDYAMH | GISGNSGSIGYADCVK | VGRGGGYFDY |
| 32 nM | 3/3 | GFTFADYAMH | GISWNSGSIGYADSVK | VGTGGGYFDY |
| 34 nM | 3/3 | GFTFDNYAMH | GISWNSKSIGYADSVA | VGRGGGYFDY |
| 58 nM | 3/3 | GFTFDDYAMH | GISWNSGQIGFADSVK | VGRGGGYVDY |
| 59 nM | 3/3 | GFTFDDYAMH | GISWNSGSIGYIDSVK | VGRVYGYFDY |
| 190 nM | 3/3 | GFTFDDGAMH | GISWNSGSSGYADSVV | VGRGGGYFDY |
| 210 nM | 3/3 | GFTFRDYAMH | GISWNSGMIGYADSVK | VGRGGGYFDR |
| 220 nM | 3/3 | GFTFMDCAMH | GISWNSGSIGYADSVK | YGRGGGYFDY |
| 320 nM | 3/3 | GTYFDMYAMH | GISWNSGSIGYADSVK | VGRGGGYFDY |
| 420 nM | 1/3 | GFTFDDYAMH | GIYWNSGSIGYADWGK | VGRGGGYFDY |
| 620 nM | 1/3 | GFTFDFYAMH | GISWNSGSIGYAHIVK | VGRGGGYFDY |
| 1.1 µM | 1/3 | GFTFDDYAMH | GISWFVGSPGYADSVK | VGRGGGYFDY |
| 1.8 µM | 3/3 | GFTFDDYAMH | GISWNSGSIGAADSVK | VGRGGGYFYY |
| 2.4 µM | 1/3 | PFTFDDYAMH | GIEWNSGSIGYADSVK | YGRGGGYFDY |
| 3.0 µM | 3/3 | GFTFDDYAMH | GISWNTGSIGYADRVK | VGRGGGYFDK |
| 3.6 µM | 1/3 | GCTFDDYADH | GISWMSGSIGYADSVK | VGRGGGYFDY |
| 5.0 µM | 2/3 | GFTFDDYAMH | GISWNSGLIGYAYSVK | VGRGGGYFDY |
| 6.6 µM | 2/3 | GFTFDDAAMH | GISWYSGSIGYADSVK | VGRGGGTFDY |
| 6.7 µM | 2/3 | GFTFDDYAMH | GFSNNSGSIGYADSVK | VGRGGGYFDC |
| 8.1 µM | 1/3 | GFTFDDYLMH | GISWNSGSIGYADSVK | VGRPYGYFDY |
| 10 µM | 1/3 | GFTFDDYAME | GISCNSGSIGYADCVK | VGRGGGYFDY |
| 16 µM | 1/3 | SFTFDDYAMH | GWSWNSGSIGYADSVK | VGRNGGYFDY |
| 18 µM | 1/3 | GFTFDDYAMH | GISWNSGSIGYADQVK | VGRGGGVIDY |
| 26 µM | 2/3 | GFQFDDYAMH | GISWISGSIGYADSVK | FGRGGGYFDY |
| 27 µM | 1/3 | GFTFDDKWMH | GISSNSGSIGYADSVK | VGRGGGYFDY |
| 44 µM | 1/3 | GFTFDDYAMH | DISWNSGSIGYTDSVK | VGRGGGYFDY |
| 67 µM | 2/3 | GFTFDDYAMH | GISCNSGSIGDCDSVK | VGRGGGYFDY |
| 69 µM | 1/3 | SFTFDEYAMH | GISWNSGSIGYADPVK | VGRGGGYFDY |
| 110 µM | 2/3 | GFTFDDYDMI | GISWNSGSIGYADSVK | VGRGGPYFDY |
| 110 µM | 3/3 | GFTFDDYAMH | GLCWNSGSIGYADSVM | VGRGGGYFDY |
| 190 µM | 2/3 | GFTFDDYAML | MISWNSGSIGIADSVK | VGRGGGYFDY |
| 210 µM | 2/3 | GTTFDDYAMH | GITYNSGSIGYADSVK | VGRGGGYFDY |
| 310 µM | 3/3 | GFTFDGYAMH | GISWNSGSICYADSVK | VGREGGYFDY |
| 330 µM | 1/3 | GFTFDDYAMH | GIFWNSGSIGYAQSVK | VGRGGGYFDP |
| 480 µM | 2/3 | GFTKDDYAMH | GISWNSGSWGYADSVK | VGDGGGYFDY |
| nd | 0/3 | GFTFDYYAMH | GISWNYGGIGYADSVK | VGRGGGYFDY |
| nd | 0/3 | GFTFDFDAMH | GISWNSGSIMYADSVK | VGRGGGYFDY |
| nd | 0/3 | GFTFDDYAMH | GISWNSGSIGYAISVK | VGRAGGYFDY |
| nd | 0/3 | GFWKDDYAMH | GISWNSGSIGYADSVK | KGRGGGYFDY |
| nd | 0/3 | GFHFDDYAMK | GISWSSGSIGYADSVK | VGRGGGYFDY |
| nd | 0/3 | GFTFDDYAMH | TYSWNSGSIGYADSVK | VGRGGYYFDY |
| nd | 0/3 | GFSFDDYAMH | GISWNSGPIGYADSVK | VGRGGGYFDW |
| nd | 0/3 | GFTFDWFAMH | GISWNSGSIGYADSFK | VGRGGGYFDY |
| nd | 0/3 | GFTFDDYAMH | GICWNSGSIGYADSVK | VGRGRGYLDY |
| nd | 0/3 | VFTFDDYAMH | GISWNSGSIGYADSVK | VSRGGGSFDY |
| nd | 0/3 | GFTFDDYAMH | GINWNSGSIGYADSVK | VGRLGGYEDY |
| nd | 0/3 | GFTFDDYAMH | GISWNSGSIGYATPVS | VGRGGGYFDY |
| nd | 0/3 | GFTFDDYAMH | CISWNSGSIGYADSMK | VGRGGMYFDY |
| nd | 0/3 | AFTFDDYAMH | GISCNSGSIGYADSVK | AGRGGGYFDY |
| nd | 0/3 | GFTFDDYAMH | GISYNSESIGYADSVK | VGRGGGYGDY |
| nd | 0/3 | GFTFDDHAMH | GISWISHSIGYADSVK | VGRGGGYFDY |
| nd | 0/3 | GFTFLDYAMH | GISWNSGSIGYADSVK | VGQWGGYFDY |
| nd | 0/3 | GFTFDDYAYH | GISWNSGSWGYADSVK | VGRWGGYFDY |
| nd | 0/3 | GFTFDEYAMY | GIWWNSGSIGYADSVK | VGRGGGYFDY |
| nd | 0/3 | DFTFDDYAMH | GISWNSGSMGYAKSVK | VGRGGGYFDY |
| nd | 0/3 | GFTFDDFAMH | GISWNSGSIQYADSVK | VGNGGGYFDY |
| nd | 0/3 | GFTFDDYAMH | GWSWNQGSITYADSVK | VGRGGGYFDY |
| nd | 0/3 | GFTFDDYAMH | GISWNSGSIGYARSVK | VGIGGGAFDY |
| nd | 0/3 | GFTFDDAAMH | GGSWNSGSIGEADSVK | VGRGGGYFDY |
| nd | 0/3 | GFTFDDYAMH | GYSWNSGSIGYADSGK | VGRGGGYFDW |
| nd | 0/3 | GFLFDDYAMH | GIHWNSGSIGYADSSK | VGRGGGYFDY |
| nd | 0/3 | GFHFDDYAMK | GISWNSGRIGYADSVK | VGRGGGYFDY |
| nd | 0/3 | GFTFADYAMH | GWSWNSGSIGYADSVK | VGRGGIYFDY |
| nd | 0/3 | GFTFDDYAMH | GISWTSGSIGYADSVK | VERGGIYFDY |
| nd | 0/3 | GFNFDDYAMH | EISWNSGSIGYADSVK | VGRGGGYSDY |
| nd | 0/3 | GFTFDDYWMH | GISWNRGSIGYADSVK | VGRGGGYFAY |
| nd | 0/3 | GFTFDDYAIH | GISWVSGSIGYADSVK | VCRGGGYFDY |
| nd | 0/3 | GFTFFDYAMH | TISWNSGSIGYADSVK | VGRGGGYFDY |
| nd | 0/3 | GFTFDDYAMH | GISWLSGSIGYSDSVK | VGNGGGYFDY |
| nd | 0/3 | GFTFDDYAMH | GISWNSGIIGYADSVK | SGRGGGYFDY |
| nd | 0/3 | GFTFDDYAME | GISWNSGSIGYNDSVK | VGRGGGYIDY |
| nd | 0/3 | GFTFDDYAMH | FISWNSGSIGYADSVK | VGRGGGYFWY |
| nd | 0/3 | GFTFRDYAMH | GTSWNSGSIGFADSVK | VGRGGGYFDY |
| nd | 0/3 | HFTFDDYAMH | GIPWNSGSIGYADSVK | VGKGGGYFDY |

Excerpt, the final 6 entries:

CDR-H1,CDR-H2,CDR-H3,apparent Kd,seen in
GFTFDDYAMH,GISWLSGSIGYSDSVK,VGNGGGYFDY,nd,0/3
GFTFDDYAMH,GISWNSGIIGYADSVK,SGRGGGYFDY,nd,0/3
GFTFDDYAME,GISWNSGSIGYNDSVK,VGRGGGYIDY,nd,0/3
GFTFDDYAMH,FISWNSGSIGYADSVK,VGRGGGYFWY,nd,0/3
GFTFRDYAMH,GTSWNSGSIGFADSVK,VGRGGGYFDY,nd,0/3
HFTFDDYAMH,GIPWNSGSIGYADSVK,VGKGGGYFDY,nd,0/3

In this assay the parent's reference entry averaged 72 nM; its copy inside this library read 7.5 nM.